According to patent US8039668B2, “Naphthalene-based inhibitors of anti-apoptotic proteins” (Burnham Institute for Medical Research, priority 2008, dated 2011):
“And” between values parts separate entries of the source, which are not always exact repeats. Equal entries are not always repeated. Where two headings read alike, the source gives them in different places.

Sequences of proteins named here, by UniProt entry; tags and fusion partners are left off. Residues count along the entry.
UniProt Q07817, 1-209 limits assumed: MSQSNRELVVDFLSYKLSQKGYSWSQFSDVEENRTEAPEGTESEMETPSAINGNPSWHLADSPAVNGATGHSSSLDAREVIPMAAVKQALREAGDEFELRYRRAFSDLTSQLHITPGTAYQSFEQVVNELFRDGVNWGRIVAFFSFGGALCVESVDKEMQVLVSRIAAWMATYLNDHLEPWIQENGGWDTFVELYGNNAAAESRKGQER

Tests used:
BCL-XL = BCL-XL (Homo sapiens, UniProt Q07817); assay: Competitive fluorescence polarization assay (FPA), Bak BH3 peptide; assay type: binding; set-up: 100 nM GST-BCL-XL ΔTM protein
Description: For competitive binding assays, 100 nM GST-BCL-XL ΔTM protein was preincubated with the tested compound at varying concentrations in 47.5 μL PBS (pH=7.4) in 96-well black plates at room temperature for 10 min, then 2.5 μL of 100 nM FITC-labeled Bak BH3 peptide was added to produce a final volume of 50 μL. The wild-type and mutant Bak BH3 peptides were included in each assay plate as positive and negative controls, respectively. […] IC50 was determined by fitting the experimental data to a sigmoidal dose-response nonlinear regression model (SigmaPlot 10.0.1, Systat Software, Inc., San Jose, Calif., USA). Data reported are mean of three independent experiments±standard error (SE). […] Fluorescence polarization was measured after 10 min.

PC3ML cells = assay: Cell viability, ATP-LITE assay; assay type: cell-based, human; details: vs Apogossypol
Description: (§1) The activity of the compounds against human cancer cell lines (PC3ML, H460, H1299, RS11846) were assessed by using the ATP-LITE assay (PerkinElmer). All cells were seeded in either F12 or RPMI1640 medium with 5 mM L-glutamine supplemented with 5% fetal bovine serum (Mediatech Inc.), penicillin and streptomycin (Omega). For maintenance, cells were cultured in 5% FBS. Cells plated into 96 well plates at varying initial densities depending on doubling time. H460 and H1299 plated at 2000 cells/well, A549 and PC3 at 3000 cells/well, and RS118456S at 10,000 cells/well. Compounds were diluted to final concentrations with 0.1% DMSO. Prior to dispensing compounds onto cells, fresh 5% media was placed into wells. Administration of compounds occurred 24 hours after seeding into the fresh media. Cell viability was evaluated using ATP-LITE reagent (PerkinElmer) after 72 hours of treatment. Data were normalized to the DMSO control-treated cells using Prism version 5.01 (Graphpad Software).

[1] = system: H460 human lung cell line; assay: Cell viability, ATP-LITE assay; assay type: cell-based
Description: as §1

[2] = system: BP3 human B-cell lymphoma cell line; assay: Annexin V-FITC and propidium iodide assay; assay type: cell-based; details: read-out: IC50 inhibiting cell growth, BP3

In the case of Cc1ccc(CC(=O)c2c(O)c(O)cc3c(O)c(-c4c(C)cc5c(C(=O)Cc6ccc(C)cc6)c(O)c(O)cc5c4O)c(C)cc23)cc1 [Compound XII, 1,1′-(1,1′,6,6′,7,7′-hexahydroxy-3,3′-dimethyl-2,2′-binaphthyl-5,5′-diyl)bis(2-p-tolylethanone)], the IC50 (BCL-XL; FPA IC50 (BCL-XL), Table 9) is reported as 140 to 450 nM and 320 nM and the “fold more potent than Apogossypol, PC3ML” value (PC3ML cells) is reported as 2-5.
Cc1cc2c(C(=O)NCC(C)c3ccccc3)c(O)c(O)cc2c(O)c1-c1c(C)cc2c(C(=O)NCC(C)c3ccccc3)c(O)c(O)cc2c1O (stereo not drawn) [Compound 8r, 1,1′,6,6′,7,7′-hexahydroxy-3,3′-dimethyl-N^5,N^5′-bis(2-phenylpropyl)-2,2′-binaphthyl-5,5′-dicarboxamide] was tested, and the IC50 (BCL-XL; text b221, read-out: IC50 Bcl-XL) was 760 nM, the EC50 ([1]; NCI-H460, ATP-LITE assay) was 330 nM and the EC50 ([1]; NCI-H460, Table 3, ATP-LITE assay) was 330 nM. It also gave an IC50 [2] of 660 nM.
